One assay deals with PIK3CB (Human) (UniProt P42338). Put plainly: Inhibition of PIK3CB Kinase Activity.
The target in another assay is PIK3CG (human) (UniProt P48736). Put plainly: Enzyme Assay.

By UniProt entry, the sequences of proteins in these tests, tags left out. Where a name states a change or a piece, a line headed by the entry shows the natural chain unless it says otherwise.
UniProt P42338: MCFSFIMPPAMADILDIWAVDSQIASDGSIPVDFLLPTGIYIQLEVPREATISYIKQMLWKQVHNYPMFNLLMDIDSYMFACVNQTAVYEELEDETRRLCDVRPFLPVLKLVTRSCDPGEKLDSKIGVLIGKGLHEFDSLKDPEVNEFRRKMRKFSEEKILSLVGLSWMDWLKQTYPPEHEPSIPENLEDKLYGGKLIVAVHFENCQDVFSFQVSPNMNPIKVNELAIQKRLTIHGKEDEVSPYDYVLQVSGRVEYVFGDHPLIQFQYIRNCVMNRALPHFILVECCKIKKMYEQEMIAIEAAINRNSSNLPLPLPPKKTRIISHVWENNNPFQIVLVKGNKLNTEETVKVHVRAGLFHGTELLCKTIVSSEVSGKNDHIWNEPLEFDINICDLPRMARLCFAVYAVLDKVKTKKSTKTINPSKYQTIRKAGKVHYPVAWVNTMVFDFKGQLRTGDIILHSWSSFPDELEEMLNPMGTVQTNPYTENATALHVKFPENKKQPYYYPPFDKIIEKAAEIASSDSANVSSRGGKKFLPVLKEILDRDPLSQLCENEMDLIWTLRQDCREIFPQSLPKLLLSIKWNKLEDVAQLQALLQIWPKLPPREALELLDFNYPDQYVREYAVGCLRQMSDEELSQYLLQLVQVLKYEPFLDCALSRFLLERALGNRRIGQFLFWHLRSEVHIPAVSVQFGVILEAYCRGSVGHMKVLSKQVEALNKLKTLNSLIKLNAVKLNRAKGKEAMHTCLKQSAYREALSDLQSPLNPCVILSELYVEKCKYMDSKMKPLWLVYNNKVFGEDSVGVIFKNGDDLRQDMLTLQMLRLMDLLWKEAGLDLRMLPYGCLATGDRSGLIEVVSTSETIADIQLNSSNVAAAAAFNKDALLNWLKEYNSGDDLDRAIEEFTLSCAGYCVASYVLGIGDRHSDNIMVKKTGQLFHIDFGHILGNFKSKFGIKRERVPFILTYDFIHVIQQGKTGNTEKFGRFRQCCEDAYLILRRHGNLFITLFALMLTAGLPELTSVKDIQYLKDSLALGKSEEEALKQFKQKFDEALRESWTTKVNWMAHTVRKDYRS
UniProt P48736: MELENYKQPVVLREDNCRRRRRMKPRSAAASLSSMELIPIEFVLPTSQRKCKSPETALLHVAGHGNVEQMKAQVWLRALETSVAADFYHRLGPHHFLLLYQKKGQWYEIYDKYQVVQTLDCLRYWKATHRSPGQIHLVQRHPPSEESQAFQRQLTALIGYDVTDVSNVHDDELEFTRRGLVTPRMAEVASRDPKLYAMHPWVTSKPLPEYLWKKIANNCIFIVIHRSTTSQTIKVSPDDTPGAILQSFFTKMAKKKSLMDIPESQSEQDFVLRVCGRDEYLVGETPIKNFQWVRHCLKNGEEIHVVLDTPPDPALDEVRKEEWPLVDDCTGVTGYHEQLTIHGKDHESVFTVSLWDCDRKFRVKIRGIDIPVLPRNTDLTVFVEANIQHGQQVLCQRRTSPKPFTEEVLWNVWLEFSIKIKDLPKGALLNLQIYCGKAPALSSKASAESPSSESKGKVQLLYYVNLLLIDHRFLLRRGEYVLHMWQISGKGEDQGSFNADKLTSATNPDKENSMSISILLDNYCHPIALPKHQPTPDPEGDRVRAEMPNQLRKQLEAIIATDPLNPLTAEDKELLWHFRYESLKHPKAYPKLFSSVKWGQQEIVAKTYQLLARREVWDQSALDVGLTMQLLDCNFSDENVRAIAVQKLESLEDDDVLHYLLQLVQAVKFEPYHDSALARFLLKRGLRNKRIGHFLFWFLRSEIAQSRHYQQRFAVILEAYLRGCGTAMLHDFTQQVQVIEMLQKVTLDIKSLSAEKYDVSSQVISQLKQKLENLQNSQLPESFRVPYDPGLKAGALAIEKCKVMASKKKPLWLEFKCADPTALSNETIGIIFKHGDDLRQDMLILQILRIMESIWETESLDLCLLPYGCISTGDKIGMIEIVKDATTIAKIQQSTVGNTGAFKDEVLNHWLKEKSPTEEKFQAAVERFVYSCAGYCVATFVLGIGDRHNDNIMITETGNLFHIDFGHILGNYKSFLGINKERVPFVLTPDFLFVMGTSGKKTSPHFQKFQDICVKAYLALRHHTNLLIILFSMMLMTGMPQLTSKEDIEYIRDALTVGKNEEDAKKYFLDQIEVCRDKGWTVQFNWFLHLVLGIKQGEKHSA

The results in this text go back to the Kinase Knowledgebase extract (Sharma et al. 2016).

pIC50: −log10 of the molar value.

At PIK3CB (Human), `CNC(=O)Nc1nc2ccc(-c3nn(C(C)C)c4ncnc(N)c34)cc2s1` gave a negative-log IC50 (pIC50) of 6.30 to 7.00. In turn, `Nc1ncnc2c1c(-c1cc3cc(O)ccc3[nH]1)nn2C1CCCC1` gave a negative-log IC50 (pIC50) against PIK3CG (human) of 6.30 to 7.00.
